## AlphaSeq binding of Ab-14 light chain variants to a spike HR2 peptide

Source: Li et al. 2023 (doi:10.1038/s41467-023-39022-2), MIT Lincoln Laboratory and A-Alpha Bio; data file from the FLAb repository.

All variants were tested on one target, the spike HR2 peptide PDVDLGDISGINAS (SARS-CoV-2).

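The starting antibody came from a phage panning campaign against this peptide. These sequences belong to a second round, designed from the earlier measurements on random variants of the parent. Group labels follow the data file (En: ensemble of fine-tuned language models; GP: Gaussian process model; HC: hill climbing; Gen: genetic algorithm; Gibbs: Gibbs sampling; a sequence that several methods proposed may carry one label only). The assay is AlphaSeq: two haploid yeast populations carry antibody and antigen on their surface. Binding brings cells together so that they mate, and sequencing counts the barcode pairs among the diploids. Read counts were normalised to the haploid input and turned into Kd by a linear fit to BCL2-family pairs of known affinity, for each replicate. Each pool was mated in six replicate cultures.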

Parent: Ab-14, a human scFv built as VH, three GGGGS repeats, VL. Only the CDRs of the light chain vary.
VH: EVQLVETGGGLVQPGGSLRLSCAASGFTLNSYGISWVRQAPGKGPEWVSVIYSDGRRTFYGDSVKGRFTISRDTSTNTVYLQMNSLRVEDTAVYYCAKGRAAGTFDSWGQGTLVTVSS
VL: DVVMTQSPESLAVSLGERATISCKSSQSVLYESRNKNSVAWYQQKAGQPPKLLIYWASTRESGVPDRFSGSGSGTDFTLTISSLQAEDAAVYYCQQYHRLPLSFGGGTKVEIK

The parent's light chain CDRs are KSSQSVLYESRNKNSVA, WASTRES, QQYHRLPLS; each variant's own CDRs replace them letter for letter.
Variants here have more than six changes.
Values are apparent Kd, the geometric mean of the replicates that gave a signal; lower means stronger binding.
Where no diploid with the target was found in any replicate, the entry reads "nd": below detection, most likely a poor binder, though not proof of it.
The authors' rule: three or more of the six replicates give a measured affinity, fewer mean a poor binder.
Values of this round are not directly comparable with the first-round values of the same sequences.
As a blank, each scFv also met three strains without target: over all light chain designs, 4% of these pairings were detected, typically at 430 nM and seldom below 38 nM.

For YMSGQISGGWNQQEAIA / EVTYKEH / QQYYQLPLS [En_Gibbs], the assay gave nd (0 of 6 replicates). For KIIQSGPYESRNKNSVA / SASTRSP / QQYHRLPLS [GP_Gibbs], the assay gave 1.4 nM (6 of 6 replicates). Variant FMEMDFQGNSVNHNSIA / SEEVVTR / QHYARLPLS [En_Gibbs] gave 2.6 nM (1 of 6 replicates). Variant MMPQMFEGLSTSKNPVA / QVSTREE / QQYHRLPLS [En_HC] showed 1.5 nM (6 of 6 replicates). Variant KIMHQHVGNWKTMNNIA / QGDQRCQ / QSYDRLPLS [En_Gibbs] gave 5.7 nM (6 of 6 replicates). With SMHPFDVAIGKGTQNIA / HVSVRAS / QQYDRLPLV [En_Gibbs] the result was 9.0 nM (6 of 6 replicates). With KITATMRFEQKASNNIA / EVTTRSK / QQYFRLPLS [En_Gen] the result was 4.3 nM (6 of 6 replicates). Variant VMQMQNDRMQDAAKNIA / DVDMRET / QQYARLPFM [En_Gibbs] showed 12 nM (6 of 6 replicates). For HLGWATMLEETVRNSVA / NNSTRES / QQYDRLPLS [En_Gen], the assay gave 21 nM (6 of 6 replicates).

Variant KISYMGEFFSTNHSAIA / QASTREQ / QQYHRLPLS [En_HC] showed 7.0 nM (6 of 6 replicates). For GVTHTMESGKQAPNSIA / NAEQLQI / QQYQRLPLS [En_Gibbs], the assay gave 14 nM (6 of 6 replicates). For TIGQMFNGESRNRNSVA / QASTREP / QSYDRLPLS [En_HC], the assay gave 950 pM (6 of 6 replicates). With MFSQLTYMGSRARNAVA / QAETRLN / QQYHHLPLF [En_HC] the result was 6.8 nM (6 of 6 replicates). Variant KLQNSQEYESRMKNSVA / NASQRED / QQYHRLPLS [GP_Gibbs] showed 880 pM (6 of 6 replicates). Variant NLSIEMSYYYENRYSIA / DMTVREY / QHYSRIPLA [En_Gibbs] gave 320 nM (4 of 6 replicates). Variant MLKMPNHEVNFDKNSVA / DRTTKES / QQYHRLPIT [En_Gibbs] gave 17 nM (6 of 6 replicates). With TISMHTSLFSQTINNVA / EVSTREQ / QQYDRLPLV [En_Gen] the result was 5.4 nM (6 of 6 replicates). Variant HFDDLDVEWDANQSQVA / DHNEAQH / QQYARLPLS [En_Gibbs] showed 56 nM (6 of 6 replicates).

Variant NLKEMEGTNQTKHGNIA / SVDQRMT / QQYFRLPFA [En_Gibbs] showed 7.5 nM (6 of 6 replicates). For KLIQSVAMVSRNKDSIA / DNSTRFY / QQYHRLPLS [En_HC], the assay gave 390 nM (6 of 6 replicates). Variant MLSQTVDYNYTAGNSVA / EVTERCN / QQYKQLPLS [En_Gibbs] showed 200 nM (5 of 6 replicates). For KLSQMVNFFGHAINSVA / EMETREN / QQYDRLPLS [En_HC], the assay gave 8.7 nM (6 of 6 replicates). Variant TISQMLLMQTYHKNSVA / GEETRYN / QQYHRLPLS [En_HC] gave 20 nM (6 of 6 replicates). With TIGQVMNYESRNINSVA / QTSTREE / QDYDRLPLS [En_HC] the result was 470 nM (1 of 6 replicates). For KLSIMYQHTSREKNNIA / ERSTREE / QQYHHLPLS [En_HC], the assay gave 4.7 nM (6 of 6 replicates). Variant KLMFSCLYESRMPNSVA / NASTRYS / QQYHRLPLS [GP_Gibbs] showed 380 nM (1 of 6 replicates). With HLGYATMLEETVRNSVA / NNSTREE / QQYDRLPLS [En_Gen] the result was 160 nM (6 of 6 replicates).

Variant HISQSVGMTSFNKNSVA / ENSTREN / QQYDRLPLS [En_HC] gave 300 nM (4 of 6 replicates). Variant SLMQSVLQESRNKNSVA / HASLRED / QQYHRLPLS [GP_HC] gave 2.6 nM (6 of 6 replicates). Variant ALSQSMDMTSRNKNSVA / DLSTRTN / QQYHRLPLS [En_HC] showed 1.1 nM (6 of 6 replicates). With KLHQSQLYESRNINSVA / NASQRCS / QQYHRLPLS [GP_Gibbs] the result was 1.5 nM (6 of 6 replicates).

Excerpt, the first 4 entries:

{"CDR-L1": "YMSGQISGGWNQQEAIA", "CDR-L2": "EVTYKEH", "CDR-L3": "QQYYQLPLS", "group": "En_Gibbs", "Kd (apparent)": "nd", "detected": "0/6"}
{"CDR-L1": "KIIQSGPYESRNKNSVA", "CDR-L2": "SASTRSP", "CDR-L3": "QQYHRLPLS", "group": "GP_Gibbs", "Kd (apparent)": "1.4 nM", "detected": "6/6"}
{"CDR-L1": "FMEMDFQGNSVNHNSIA", "CDR-L2": "SEEVVTR", "CDR-L3": "QHYARLPLS", "group": "En_Gibbs", "Kd (apparent)": "2.6 nM", "detected": "1/6"}
{"CDR-L1": "MMPQMFEGLSTSKNPVA", "CDR-L2": "QVSTREE", "CDR-L3": "QQYHRLPLS", "group": "En_HC", "Kd (apparent)": "1.5 nM", "detected": "6/6"}